Source: patent publication US20050175580A1, “Compositions and methods for enhancing cytokine activity and treating hypotension associated with the administration of cytokines” (priority 2001, published 2005)

Experiments:
mice [1] = experiment: IL-2 induced hypotension in mice, systolic blood pressure via tail cuff; assay type: in vivo; details: IL-2 180,000 IU i.p. twice daily for 5 days
Experimental: IL-2, M40403 and IL-2/M40403 were administered to mice (n=6 per group) in order to determine the effect of these compounds on mean blood pressure. 180,000 IU of IL-2 was administered intraperitoneally (i.p.) twice daily for 5 days (10 doses) to each animal of the first group on a daily basis for 4 days. Experimental animals received M40403 (0.03-3 mg/kg) i.p.b.i.d. in conjunction with IL-2. Parallel groups of untreated mice or mice receiving M40403 alone (at the highest dose tested of 3 mg/kg) served as a control. Two hours after the last dose of IL-2, systolic blood pressure was measured via tail cuff (Stoelting, Wood Dell, Ill.) and using a PowerLab digital signal transducer (AD instruments, Mountain View, Calif.). Analysis was performed using Chart 3.6.1 software (AD instruments).
Preliminary experiments were also performed with M40401.

RD-995 tumor = experiment: Rosenberg tumor model, RD-995 pulmonary metastases; assay type: in vivo, mice; details: single agent; IL-2 180,000 IU i.p. every 12 h for 5 days or M40403 3 mg/kg; day 14
Text: RD-995 is a skin fibrosarcoma that was induced by chronic ultraviolet light exposure of a C3H/HeN mouse (Samlowski et al., 1995). This tumor grows in non-immunosuppressed mice, and is thus termed a “progressor” tumor. RD-995 is sensitive to LAK cell mediated killing in vitro. Pulmonary metastases derived from RD-995 are exquisitely sensitive to IL-2 treatment (with or without infusion of LAK cells).
Four groups (n=6 mice per group) of mice (control, M40403 alone, IL-2 only, IL-2+M40403) were acclimated to metabolic cages. Once stabilized, mice were injected with 10^6 RD-995 tumor cells intravenously. An IL-2 only treatment group served as a positive control, with IL-2 treatment beginning 3 days after tumor injection (IL-2 given at 180,000 IU i.p. every 12 h for 5 days). Simultaneously, parallel groups of mice began M40403 (3 mg/kg), concurrently with IL-2. On day 14, mice were sacrificed by anesthetic overdose. After anterior thoracotomy, India ink solution (30 ml India ink, 4 drops ammonium hydroxide in 170 ml distilled water) was instilled into the trachea of each mouse via 18 ga. needle, until the lungs were completely expanded. Lungs were then excised and bleached in 5-10 ml Fekete's solution (100 ml 70% ethanol, 10 ml formaldehyde, 5 ml glacial acetic acid) for at least 24 h prior to enumeration of metastases using a magnifying lens.

mice [2] = experiment: IL-2 dose escalation study with or without M40403 (deaths, blood pressure); assay type: in vivo; details: absence of M40403
Experimental: Mice (n=6 per group) were treated with escalating doses of IL-2 of 180,000, 200,000, 250,000, 300,000, 350,000 and 400,000 IU IL-2 injected i.p. twice daily for 5 days (10 doses). Experimental animals received M40403 (3 mg/kg) i.p. b.i.d. in conjunction with IL-2. Two hours after the last dose of IL-2, systolic blood pressure was measured via tail cuff (Stoelting, Wood Dell, Ill.) and using a PowerLab digital signal transducer (AD instruments, Mountain View, Calif.). Analysis was performed using Chart 3.6.1 software (AD instruments).

Meth A tumor = experiment: Meth A fibrosarcoma tumor model (malignant ascites), survival; assay type: in vivo, BALB/c mice; details: IL-2 180,000 IU s.c. every 12 h for 5 days from day 6
Text: Meth A was induced in a BALB/c mouse by methylcholanthrene treatment (obtained from Lloyd Old, MSKCC). This very aggressive fibrosarcoma is one of the rare tumors resistant to LAK cell mediated cytolysis in vitro. When injected intraperitoneally into mice (malignant ascites), this tumor responds to IL-2 therapy with improved survival. The mechanism is not completely established but may involve nitric oxide as a component of the treatment response. See Yim et al., J. Immunol. 155: 4382-4390 (1995). […] The Meth A model serves to provide a resistant tumor model to evaluate potentially synergistic antitumor effects of combinations of IL-2 with M40403. This model is more representative of the majority of IL-2 treated human cancers, which at best undergo disease stabilization following IL-2 treatment followed by eventual disease progression.
Groups of 8 normal BALB/c mice (Control, M40403 only, IL-2 only, IL-2+M40403) were injected with 2×10^6 Meth A tumor cells intraperitoneally (day 0). On day 6 following tumor implantation, mice began treatment with IL-2 (180,000 IU s.c. every 12 h for 5 days) with or without concomitant treatment with M40403 (3 mg/kg, s.c.). Survival of the mice was used as the major endpoint to assess therapeutic responses.

IL-2: Interleukin-2 (IL-2), a cytokine which is primarily synthesized by activated T lymphocytes
reduction of systolic BP following IL-2 administration (mice [1]; versus control): approximately 50%
Mean Systolic BP (mice [1]; mice, n=6 per group, M40403 alone at 3 mg/kg, tail cuff two hours after last dose of IL-2): 44.53
systolic BP, mean (mice [1]; mice, n=6 per group, M40403 alone at 3 mg/kg, two hours after last dose of IL-2): 45±8.0 mmHg
number of tumor nodules in lungs (RD-995 tumor): eliminated
deaths (mice [2]; IL-2 200,000 IU b.i.d. for 5 days): 1 deaths of 6 mice
deaths (mice [2]; IL-2 250,000 IU b.i.d. for 5 days): 1 deaths of 6 mice
deaths (mice [2]; IL-2 300,000 IU b.i.d. for 5 days): 1 deaths of 6 mice
deaths (mice [2]; IL-2 400,000 IU b.i.d. for 5 days): 6 deaths of 6 mice
survival (Meth A tumor): 19 days
